From patent US10912763B2 (priority 2010, dated 2021)

Assays:
[1] = Storage stability of SMEDDS hard gelatin capsules (25° C./60% RH and 40° C./75% RH); conditions: for Content of decomposition product 6′-fluoro-4-phenyl-4′,9′-dihydro-3′H-spiro[cyclohex-3-ene-1,1′-pyrano[3,4-b]indole]: SMEDDS hard gelatin capsule, 40° C. and 75% rh
[2] = Saturation concentration of (I′b) in oils, surfactants, solvents and their mixtures
[3] = for Cmax,5d, arithmetic mean / Cmax,5d, geometric mean / tmax,5d, geometric mean / tmax,5d, arithmetic mean: day 5; for mean C0-3 h, 1 d: 0-3 h after administration on day 1; for mean C0-3 h, 1 d / mean C0-3 h, 5 d: mean ± SD; for mean C0-3 h, 5 d: 0-3 h after administration on day 5

Structure (SMILES): CN(C)[C@]1(c2ccccc2)CC[C@]2(CC1)OCCc1c3cc(F)ccc3[nH]c12
- Unity of the drug content, drug's purity, release of the drug on storage ([1]; SMEDDS capsules 50 μg and 400 μg, 25° C./60% RH and 40° C./75% RH, 6 months): met the demands of the ICH and FDA guidelines
- Content of decomposition product 6′-fluoro-4-phenyl-4′,9′-dihydro-3′H-spiro[cyclohex-3-ene-1,1′-pyrano[3,4-b]indole] ([1]; dosage 50 μg, 1 month): 0.16%
- Content of decomposition product 6′-fluoro-4-phenyl-4′,9′-dihydro-3′H-spiro[cyclohex-3-ene-1,1′-pyrano[3,4-b]indole] ([1]; dosage 50 μg, 3 months): 0.25%
- Content of decomposition product 6′-fluoro-4-phenyl-4′,9′-dihydro-3′H-spiro[cyclohex-3-ene-1,1′-pyrano[3,4-b]indole] ([1]; dosage 50 μg, 6 months): 0.42%
- Content of decomposition product 6′-fluoro-4-phenyl-4′,9′-dihydro-3′H-spiro[cyclohex-3-ene-1,1′-pyrano[3,4-b]indole] ([1]; dosage 400 μg, 1 month): 0.09%
- Content of decomposition product 6′-fluoro-4-phenyl-4′,9′-dihydro-3′H-spiro[cyclohex-3-ene-1,1′-pyrano[3,4-b]indole] ([1]; dosage 400 μg, 3 months): 0.12%
- Content of decomposition product 6′-fluoro-4-phenyl-4′,9′-dihydro-3′H-spiro[cyclohex-3-ene-1,1′-pyrano[3,4-b]indole] ([1]; dosage 400 μg, 6 months): 0.25%
- Solubility of (I′b) (in surfactant/oil) ([2]; in Gelucire 44/14/Capryol 5:95 wt.-%/wt.-%): 3.06 mg/g
- Solubility of (I′b) (in surfactant/oil) ([2]; in Gelucire 44/14/Capryol 10:90 wt.-%/wt.-%): 3.31 mg/g
- Solubility of (I′b) (in surfactant/oil) ([2]; in Gelucire 44/14/Capryol 20:80 wt.-%/wt.-%): 4.05 mg/g
- Solubility of (I′b) (in surfactant/oil) ([2]; in Gelucire 44/14/Capryol 40:60 wt.-%/wt.-%): 6.07 mg/g
- Solubility of (I′b) (in surfactant/oil) ([2]; in Solutol HS/Capryol 5:95 wt.-%/wt.-%): 3.01 mg/g
- Solubility of (I′b) (in surfactant/oil) ([2]; in Solutol HS/Capryol 10:90 wt.-%/wt.-%): 3.14 mg/g
- Solubility of (I′b) (in surfactant/oil) ([2]; in Solutol HS/Capryol 20:80 wt.-%/wt.-%): 3.65 mg/g
- Solubility of (I′b) (in surfactant/oil) ([2]; in Solutol HS/Capryol 40:60 wt.-%/wt.-%): 4.56 mg/g
- Cmax,5d, arithmetic mean ([3]; dosage 40 μg once daily): 0.02739 ng/mL
- Cmax,5d, geometric mean ([3]; dosage 40 μg once daily): 0.02539 ng/mL
- tmax,5d, geometric mean ([3]; dosage 40 μg once daily): 4.654 h
- mean C0-3 h, 1 d ([3]; dosage 40 μg): 18.5 ± 18.1 (N = 23) pg/mL
- mean C0-3 h, 5 d ([3]; dosage 40 μg): 14.8 ± 8.7 (N = 26) pg/mL
- Cmax,5d, arithmetic mean ([3]; dosage 80 μg once daily): 0.0602 ng/mL
- Cmax,5d, geometric mean ([3]; dosage 80 μg once daily): 0.05689 ng/mL
- tmax,5d, arithmetic mean ([3]; dosage 80 μg once daily): 5.150 h
- mean C0-3 h, 1 d ([3]; dosage 80 μg): 26.5 ± 15.4 (N = 21) pg/mL
- mean C0-3 h, 5 d ([3]; dosage 80 μg): 40.3 ± 16.4 (N = 22) pg/mL
- Cmax,5d, arithmetic mean ([3]; dosage 100 μg once daily): 0.07524 ng/mL
- Cmax,5d, geometric mean ([3]; dosage 100 μg once daily): 0.06917 ng/mL
- tmax,5d, arithmetic mean ([3]; dosage 100 μg once daily): 5.125 h
- tmax,5d, geometric mean ([3]; dosage 100 μg once daily): 4.658 h
- mean C0-3 h, 1 d ([3]; dosage 100 μg): 24.6 ± 19.7 (N = 33) pg/mL
- mean C0-3 h, 5 d ([3]; dosage 100 μg): 49.1 ± 27.9 (N = 37) pg/mL
- Cmax,5d, arithmetic mean ([3]; dosage 120 μg once daily): 0.08649 ng/mL
- Cmax,5d, geometric mean ([3]; dosage 120 μg once daily): 0.07981 ng/mL
- tmax,5d, arithmetic mean ([3]; dosage 120 μg once daily): 4.591 h
- tmax,5d, geometric mean ([3]; dosage 120 μg once daily): 4.288 h
- mean C0-3 h, 1 d ([3]; dosage 120 μg): 34.7 ± 25.8 (N = 26) pg/mL
- mean C0-3 h, 5 d ([3]; dosage 120 μg): 50.0 ± 30.6 (N = 25) pg/mL
- Cmax,5d, arithmetic mean ([3]; dosage 200 μg once daily): 0.16038 ng/mL
- Cmax,5d, geometric mean ([3]; dosage 200 μg once daily): 0.15468 ng/mL
- tmax,5d, arithmetic mean ([3]; dosage 200 μg once daily): 5.745 h
- tmax,5d, geometric mean ([3]; dosage 200 μg once daily): 5.269 h
- mean C0-3 h, 1 d ([3]; dosage 200 μg): 53.3 ± 40.1 (N = 22) pg/mL
- mean C0-3 h, 5 d ([3]; dosage 200 μg): 105.2 ± 34.6 (N = 22) pg/mL

Read-outs that look alike come from different tables or passages of the source.
